Measurements as given in patent publication US20100136573A1, “DIAGNOSING NEURODEGENERATIVE DISEASES” (priority 2007, published 2010).

System: TDP-43
Assay: Proteolytic processing of TDP-43 and caspase-3, Western blot of HeLa and H4 cells
Assay type: cell-based
Details: 0.2 μM, 3 hours

## CN[C@@H]1C[C@H]2O[C@@](C)([C@@H]1OC)n1c3ccccc3c3c4c(c5c6ccccc6n2c5c31)C(=O)NC4 [staurosporine]
  caspase-3 activity: concomitant increase
  cleavage of TDP-43: increased cleavage
